Tests used:
Test in all cases: apparent dissociation constant pKd app (kinobead competition) (-log10(M)); higher = stronger binding
[1] = target: ACVR2A (UniProt P27037)
[2] = target: T1, PLK4 (UniProt O00444)
T1 sequence (whole entry): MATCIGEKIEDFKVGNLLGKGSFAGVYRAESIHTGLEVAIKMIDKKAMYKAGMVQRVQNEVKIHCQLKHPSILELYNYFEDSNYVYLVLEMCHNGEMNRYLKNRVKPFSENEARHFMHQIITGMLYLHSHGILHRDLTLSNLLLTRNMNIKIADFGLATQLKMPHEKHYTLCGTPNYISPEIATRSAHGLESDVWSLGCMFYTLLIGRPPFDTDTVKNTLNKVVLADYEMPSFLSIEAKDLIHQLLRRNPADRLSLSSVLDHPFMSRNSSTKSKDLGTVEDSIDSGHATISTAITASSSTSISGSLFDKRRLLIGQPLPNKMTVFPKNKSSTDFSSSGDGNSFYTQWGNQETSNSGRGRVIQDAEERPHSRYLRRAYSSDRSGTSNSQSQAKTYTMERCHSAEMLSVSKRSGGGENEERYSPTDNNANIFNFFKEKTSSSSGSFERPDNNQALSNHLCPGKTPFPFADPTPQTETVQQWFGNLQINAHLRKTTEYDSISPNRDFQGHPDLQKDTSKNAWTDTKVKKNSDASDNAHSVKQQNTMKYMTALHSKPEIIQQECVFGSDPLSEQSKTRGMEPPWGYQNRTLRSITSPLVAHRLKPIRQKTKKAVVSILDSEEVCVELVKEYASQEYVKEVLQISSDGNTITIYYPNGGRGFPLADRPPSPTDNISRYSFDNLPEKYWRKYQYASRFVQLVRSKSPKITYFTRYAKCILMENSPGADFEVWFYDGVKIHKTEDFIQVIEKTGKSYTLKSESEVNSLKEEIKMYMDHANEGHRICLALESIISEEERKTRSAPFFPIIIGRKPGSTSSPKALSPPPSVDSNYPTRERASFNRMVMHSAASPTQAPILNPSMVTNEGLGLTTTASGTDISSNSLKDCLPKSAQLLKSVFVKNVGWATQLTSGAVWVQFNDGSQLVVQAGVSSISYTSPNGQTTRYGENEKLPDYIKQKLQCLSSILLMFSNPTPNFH

The chains behind the UniProt entries cited, without tags or fusion partners. Where a name states a change or a piece, a line headed by the entry shows the natural chain unless it says otherwise.
UniProt P27037, whole entry: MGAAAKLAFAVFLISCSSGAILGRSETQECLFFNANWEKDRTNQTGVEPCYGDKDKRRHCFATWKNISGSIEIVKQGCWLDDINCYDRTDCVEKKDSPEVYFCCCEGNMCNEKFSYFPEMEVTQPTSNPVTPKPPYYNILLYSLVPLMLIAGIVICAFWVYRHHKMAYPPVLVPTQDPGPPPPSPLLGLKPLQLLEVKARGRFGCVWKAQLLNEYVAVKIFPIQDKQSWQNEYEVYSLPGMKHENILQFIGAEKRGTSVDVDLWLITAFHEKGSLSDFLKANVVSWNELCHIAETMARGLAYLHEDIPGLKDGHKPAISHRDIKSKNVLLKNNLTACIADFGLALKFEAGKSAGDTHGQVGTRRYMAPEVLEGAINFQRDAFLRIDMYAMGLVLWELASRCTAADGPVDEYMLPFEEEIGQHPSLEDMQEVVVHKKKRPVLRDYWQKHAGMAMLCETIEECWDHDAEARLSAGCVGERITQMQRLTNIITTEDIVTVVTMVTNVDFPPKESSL
UniProt O94804: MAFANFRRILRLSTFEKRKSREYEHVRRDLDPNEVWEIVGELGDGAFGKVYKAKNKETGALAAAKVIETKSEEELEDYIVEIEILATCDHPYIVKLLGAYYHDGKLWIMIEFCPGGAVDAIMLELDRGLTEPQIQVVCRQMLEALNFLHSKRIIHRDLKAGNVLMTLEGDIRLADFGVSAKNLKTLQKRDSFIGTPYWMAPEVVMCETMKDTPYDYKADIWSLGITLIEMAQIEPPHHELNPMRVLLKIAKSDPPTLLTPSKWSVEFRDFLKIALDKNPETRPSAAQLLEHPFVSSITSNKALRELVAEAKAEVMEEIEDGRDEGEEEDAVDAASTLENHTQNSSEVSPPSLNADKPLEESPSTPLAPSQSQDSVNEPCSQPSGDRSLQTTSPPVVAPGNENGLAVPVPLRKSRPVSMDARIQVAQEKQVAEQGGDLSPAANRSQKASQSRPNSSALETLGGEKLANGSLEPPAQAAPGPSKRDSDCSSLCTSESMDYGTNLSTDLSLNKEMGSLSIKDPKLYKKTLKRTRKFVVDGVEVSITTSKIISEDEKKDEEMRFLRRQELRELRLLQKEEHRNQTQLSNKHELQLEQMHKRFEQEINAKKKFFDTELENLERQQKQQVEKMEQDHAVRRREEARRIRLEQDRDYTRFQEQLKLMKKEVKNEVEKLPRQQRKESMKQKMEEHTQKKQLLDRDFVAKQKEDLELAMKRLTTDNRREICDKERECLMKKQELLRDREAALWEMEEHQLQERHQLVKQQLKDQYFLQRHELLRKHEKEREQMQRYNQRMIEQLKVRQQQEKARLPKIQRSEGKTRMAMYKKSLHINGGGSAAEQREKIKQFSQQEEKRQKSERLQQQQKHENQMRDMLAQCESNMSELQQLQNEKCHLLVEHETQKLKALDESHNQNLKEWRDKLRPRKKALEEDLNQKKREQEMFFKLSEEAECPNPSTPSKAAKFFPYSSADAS
UniProt P54756, whole entry: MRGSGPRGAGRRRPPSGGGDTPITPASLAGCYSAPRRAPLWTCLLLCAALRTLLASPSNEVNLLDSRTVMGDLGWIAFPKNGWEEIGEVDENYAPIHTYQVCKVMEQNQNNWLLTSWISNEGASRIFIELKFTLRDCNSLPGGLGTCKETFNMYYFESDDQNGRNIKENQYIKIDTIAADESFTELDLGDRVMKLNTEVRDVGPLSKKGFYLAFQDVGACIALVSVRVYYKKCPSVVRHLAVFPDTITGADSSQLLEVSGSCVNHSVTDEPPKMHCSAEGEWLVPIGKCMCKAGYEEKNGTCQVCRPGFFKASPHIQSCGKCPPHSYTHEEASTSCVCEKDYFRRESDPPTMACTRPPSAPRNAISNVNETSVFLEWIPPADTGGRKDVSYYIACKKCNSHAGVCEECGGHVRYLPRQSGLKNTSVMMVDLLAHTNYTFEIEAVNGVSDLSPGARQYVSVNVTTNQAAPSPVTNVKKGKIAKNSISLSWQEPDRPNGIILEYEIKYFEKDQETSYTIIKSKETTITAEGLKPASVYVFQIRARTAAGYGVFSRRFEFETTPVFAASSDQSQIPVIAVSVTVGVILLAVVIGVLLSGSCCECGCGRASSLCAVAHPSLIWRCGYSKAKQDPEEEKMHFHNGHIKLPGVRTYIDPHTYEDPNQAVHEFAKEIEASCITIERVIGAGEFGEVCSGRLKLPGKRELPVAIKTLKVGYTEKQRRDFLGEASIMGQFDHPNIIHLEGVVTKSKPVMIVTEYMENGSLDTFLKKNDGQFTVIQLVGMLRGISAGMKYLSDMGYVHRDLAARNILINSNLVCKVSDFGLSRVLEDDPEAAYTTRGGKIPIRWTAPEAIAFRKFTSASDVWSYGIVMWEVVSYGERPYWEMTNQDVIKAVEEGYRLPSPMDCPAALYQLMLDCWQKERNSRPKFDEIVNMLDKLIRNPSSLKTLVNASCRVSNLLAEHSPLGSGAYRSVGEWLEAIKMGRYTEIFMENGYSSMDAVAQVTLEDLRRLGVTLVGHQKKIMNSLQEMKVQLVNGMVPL
UniProt O95747, whole entry, looked up: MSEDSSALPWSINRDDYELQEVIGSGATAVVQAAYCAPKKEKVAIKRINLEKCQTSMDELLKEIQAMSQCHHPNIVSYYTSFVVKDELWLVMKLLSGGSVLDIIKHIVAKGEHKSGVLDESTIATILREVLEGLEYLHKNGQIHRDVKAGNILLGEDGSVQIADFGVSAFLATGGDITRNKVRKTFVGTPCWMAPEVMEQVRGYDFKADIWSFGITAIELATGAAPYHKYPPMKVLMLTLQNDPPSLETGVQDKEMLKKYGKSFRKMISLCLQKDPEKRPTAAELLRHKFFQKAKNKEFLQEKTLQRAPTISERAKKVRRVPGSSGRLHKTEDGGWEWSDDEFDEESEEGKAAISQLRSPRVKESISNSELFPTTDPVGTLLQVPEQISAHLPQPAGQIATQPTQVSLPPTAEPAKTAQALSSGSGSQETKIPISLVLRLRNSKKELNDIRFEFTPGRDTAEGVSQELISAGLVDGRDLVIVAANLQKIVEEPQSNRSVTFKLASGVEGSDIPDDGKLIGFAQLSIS

[3] = target: SYK (UniProt P43405)
[4] = target: T2, EPHB4 (UniProt P54760)
T2 sequence (whole entry): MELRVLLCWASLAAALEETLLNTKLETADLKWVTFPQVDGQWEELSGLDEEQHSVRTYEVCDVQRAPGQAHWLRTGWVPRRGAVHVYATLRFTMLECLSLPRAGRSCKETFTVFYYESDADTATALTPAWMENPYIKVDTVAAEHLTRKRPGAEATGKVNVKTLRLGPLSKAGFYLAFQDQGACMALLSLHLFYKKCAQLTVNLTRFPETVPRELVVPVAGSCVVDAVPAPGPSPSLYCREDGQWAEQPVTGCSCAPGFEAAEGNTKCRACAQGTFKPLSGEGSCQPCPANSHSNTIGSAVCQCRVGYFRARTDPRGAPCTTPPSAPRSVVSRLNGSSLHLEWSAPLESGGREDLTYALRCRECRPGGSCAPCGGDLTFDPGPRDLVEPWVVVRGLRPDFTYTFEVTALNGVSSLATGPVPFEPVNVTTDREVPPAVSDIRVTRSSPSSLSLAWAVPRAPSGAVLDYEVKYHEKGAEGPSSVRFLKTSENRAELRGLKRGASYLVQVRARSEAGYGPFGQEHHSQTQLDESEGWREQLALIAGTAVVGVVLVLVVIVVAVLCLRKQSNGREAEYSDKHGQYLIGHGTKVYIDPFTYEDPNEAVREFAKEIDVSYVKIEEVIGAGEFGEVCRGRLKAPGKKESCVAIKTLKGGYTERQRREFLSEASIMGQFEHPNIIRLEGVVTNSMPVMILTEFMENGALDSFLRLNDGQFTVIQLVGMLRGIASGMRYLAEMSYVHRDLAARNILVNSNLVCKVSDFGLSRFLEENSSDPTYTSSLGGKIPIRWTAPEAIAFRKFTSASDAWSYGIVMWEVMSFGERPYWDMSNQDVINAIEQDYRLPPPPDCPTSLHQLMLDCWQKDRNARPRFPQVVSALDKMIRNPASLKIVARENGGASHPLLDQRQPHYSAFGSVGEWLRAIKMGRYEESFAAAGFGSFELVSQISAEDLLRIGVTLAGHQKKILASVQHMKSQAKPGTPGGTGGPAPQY

[5] = target: STK10 (UniProt O94804)
[6] = target: EPHA5 (UniProt P54756)
[7] = target: T3, MAP3K3 (UniProt Q99759)
T3 sequence (whole entry): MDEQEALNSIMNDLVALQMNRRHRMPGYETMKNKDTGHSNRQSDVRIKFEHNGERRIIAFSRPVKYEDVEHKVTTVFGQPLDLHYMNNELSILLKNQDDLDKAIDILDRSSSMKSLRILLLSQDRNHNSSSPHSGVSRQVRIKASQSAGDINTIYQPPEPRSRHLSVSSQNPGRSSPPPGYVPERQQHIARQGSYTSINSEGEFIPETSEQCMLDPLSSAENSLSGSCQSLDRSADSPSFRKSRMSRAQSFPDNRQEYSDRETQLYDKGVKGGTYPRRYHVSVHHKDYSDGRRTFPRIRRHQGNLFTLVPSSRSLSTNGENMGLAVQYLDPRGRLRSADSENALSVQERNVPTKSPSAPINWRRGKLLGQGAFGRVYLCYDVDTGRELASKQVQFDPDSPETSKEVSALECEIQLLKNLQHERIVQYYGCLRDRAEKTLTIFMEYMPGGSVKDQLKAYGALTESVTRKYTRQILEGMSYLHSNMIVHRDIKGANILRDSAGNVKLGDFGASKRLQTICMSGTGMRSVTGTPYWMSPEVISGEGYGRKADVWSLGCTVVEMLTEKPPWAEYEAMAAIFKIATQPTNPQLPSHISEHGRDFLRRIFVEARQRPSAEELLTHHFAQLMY

[8] = target: OXSR1 (UniProt O95747)

| apparent dissociation constant pKd app (-log10) [1] | apparent dissociation constant pKd app (-log10) [2] | apparent dissociation constant pKd app (-log10) [3] | apparent dissociation constant pKd app (-log10) [4] | apparent dissociation constant pKd app (-log10) [5] | apparent dissociation constant pKd app (-log10) [6] | apparent dissociation constant pKd app (-log10) [7] | apparent dissociation constant pKd app (-log10) [8] | SMILES |
| --- | --- | --- | --- | --- | --- | --- | --- | --- |
| < 4.6 | < 4.9 | < 4.6 | < 4.7 | < 4.6 | < 4.6 | < 4.6 | < 4.5 | NC(=O)c1cccc2cn(-c3ccc([C@@H]4CCCNC4)cc3)nc12 [Niraparib] |
| < 4.6 | < 4.9 | < 4.6 | < 4.7 | < 4.6 | < 4.6 | < 4.6 | < 4.5 | O=C(c1cc(Cc2n[nH]c(=O)c3ccccc23)ccc1F)N1CCN(C(=O)C2CC2)CC1 [Olaparib] |
| < 4.6 | < 4.9 | < 4.6 | < 4.7 | < 4.6 | < 4.6 | < 4.6 | < 4.5 | Cn1ncnc1[C@H]1c2n[nH]c(=O)c3cc(F)cc(c23)N[C@@H]1c1ccc(F)cc1 [Talazoparib] |

— the supplement of paper PMC11403291
